Reference: US20100273722A1 (YALE UNIVERSITY, published 2010)
No end group written: not given here.

B1: PP2^Flu (designed binder)
chain: APPLPPRNRGDDAPVEDLIRFYDNLQQYLNVVTRHRYC
modifications: ends and bridges not checked; also: fluorescently labeled, site and dye not given here
notes: also called PP2 (fluorescently labeled)
B2: PP1^Flu (designed binder)
chain: APPLPPRNPGDDAPVEDLIRFYDNLQQYLNVVTRHRYC
modifications: ends and bridges not checked; also: fluorescently labeled, site and dye not given here
notes: also called PP1 (fluorescently labeled)
B3: PP3^Flu (designed binder)
chain: APPLPPRNRPRDAPVEDLIRFYDNLQQYLNVVTRHRYC
modifications: ends and bridges not checked; also: fluorescently labeled, site and dye not given here
notes: also called PP3 (fluorescently labeled)

Key:
[1] = molecular target: T1, chicken c-Src (residues 81-140) SH3 domain-GST fusion protein (chicken, UniProt P00523 81-140); assay: fluorescence polarization, 50 nM labeled peptide, SH3-GST titrated
[2] = molecular target: T1, chicken c-Src (residues 81-140) SH3 …; assay: fluorescence polarization, 50 nM labeled peptide, SH3-GST titrated; data above 50 micromolar target excluded from the fit

Binder	Kd [1] [nM]	Kd [2] [nM]
B1	1300	–
B2	3680	–
B3	–	350
